# Target: T1, Arginase (Plasmodium falciparum, UniProt Q8I384)
# T1 sequence (Q8I384 whole entry): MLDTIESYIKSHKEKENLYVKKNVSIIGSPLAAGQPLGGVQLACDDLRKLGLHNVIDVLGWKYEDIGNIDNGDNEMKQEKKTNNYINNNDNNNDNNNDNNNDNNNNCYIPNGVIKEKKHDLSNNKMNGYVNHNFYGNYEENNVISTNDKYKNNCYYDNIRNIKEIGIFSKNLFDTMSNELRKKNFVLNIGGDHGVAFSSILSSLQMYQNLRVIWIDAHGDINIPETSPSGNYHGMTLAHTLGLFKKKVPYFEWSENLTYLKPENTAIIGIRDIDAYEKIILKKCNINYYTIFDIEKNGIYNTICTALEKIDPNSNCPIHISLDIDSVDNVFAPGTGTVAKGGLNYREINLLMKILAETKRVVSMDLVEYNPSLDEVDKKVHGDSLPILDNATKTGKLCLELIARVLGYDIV
# Assay: Inhibition of Plasmodium falciparum arginase using L-arginine as substrate by colorimetric assay
smiles,measurement,value
NC(CCCCB(O)O)(C(=O)O)C(F)F (racemic),Ki,2000 µM
